# Reference: patent US20040259909A1, “Treatment of fibromyalgia syndrome” (priority 2001, published 2004)
# Sequences of proteins named here, by UniProt entry; tags and fusion partners are left off. Residues count along the entry.
# UniProt P35563, 24-483 limits assumed: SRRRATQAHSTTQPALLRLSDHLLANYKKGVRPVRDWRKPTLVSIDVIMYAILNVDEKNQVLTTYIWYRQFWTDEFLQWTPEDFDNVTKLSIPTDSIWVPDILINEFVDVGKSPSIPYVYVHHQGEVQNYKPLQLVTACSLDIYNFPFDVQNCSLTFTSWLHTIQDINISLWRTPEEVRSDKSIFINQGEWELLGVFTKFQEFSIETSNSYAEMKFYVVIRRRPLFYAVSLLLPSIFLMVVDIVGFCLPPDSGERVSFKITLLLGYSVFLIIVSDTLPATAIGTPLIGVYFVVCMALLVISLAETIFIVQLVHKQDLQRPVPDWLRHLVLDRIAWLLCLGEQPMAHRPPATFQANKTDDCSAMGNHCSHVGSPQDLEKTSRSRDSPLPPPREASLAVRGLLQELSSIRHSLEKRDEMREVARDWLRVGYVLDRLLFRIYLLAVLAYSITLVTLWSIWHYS
# Target: 5-HT3 (Rattus norvegicus, UniProt P35563)
# Assay: [3H]zacopride binding to rat small-bowel muscularis membranes (Test B)
# Conditions: read-out: KD of radioligand (saturation curve, one site model), tested as the radiolabelled form
compound,measurement,value
COc1cc(N)c(Cl)cc1C(=O)NC1CN2CCC1CC2 (stereo not shown),Kd,0.7 nM
